Experimental findings from patent US8258311B2, “Human protein tyrosine phosphatase inhibitors and methods of use” (Aerpio Therapeutics Inc., priority 2006, dated 2012) are described below.

A short description of data set [1]: Rat hindlimb model: body weight. It counts as in vivo. Particulars: mean ± SE, in g (unit assumed).
The nature of data set [2]: Rat hindlimb model: blood pressure and heart rate. It counts as in vivo. Particulars: mean ± SE. An excerpt: An initial surgery is done to create hindlimb ischemia and implant osmotic pumps essentially as previously described with minor alterations. Briefly, adult male Sprague-Dawley rats (wt 340-390 grams) are first placed in an induction chamber with an O2 flow rate of 1 L/min and Isoflurane (ISO) at 2.5%, body temperature is maintained via a heating pad under the chamber. Following induction, animals are transferred to a surgical mat and anesthesia is continued via a non-rebreathing circuit. A warming lamp is positioned above the rat and a rectal probe is placed to monitor the animal's body temperature. The groin areas bilaterally are clipped and prepared with alternating Betadine and alcohol scrubs (3×) and a sterile drape is placed over the rat. The left femoral artery is exposed through a skin incision and subsequently ligated in two positions 1 cm apart; distal to the inguinal ligament and proximal to the femoral circumflex artery. The skin is closed using either skin staples or Vetbond. The same procedure is repeated on the right side. […] Stretched PESO catheters coated with PPG (Poly propylene glycol Aldrich # 20-235-5) are attached using sterile technique and in accordance with manufacture's instructions the afternoon prior to surgery. For pump placement, an incision is made to expose the right jugular vein, an area is tunneled SubQ from the right side of the neck to the back and the pump is placed in the resulting SubQ pocket. The vessel is ligated with 4-0 silk, a cut is made in the vessel just distal to the tie and the catheter from the osmotic pump is threaded down stream (approx 2 cm) and secured with a second tie. The skin is closed in the same manner as above.
Two weeks after the ligation surgery the rat underwent a second acute surgery to place indwelling catheters for microsphere measurements. Rats are anesthetized as described above. The animal is clipped, prepped, and EMLA cream is applied to each entry site. First an incision is made longitudinally at the ventral base of the tail using a 10 blade. A tapered PE 50 catheter is inserted approximately 3 cm into the ventral tail artery and anchored into place. The end of the catheter is then wrapped around the tail and tunneled SubQ over the back, exiting between the shoulder blades. Following tail artery cannulation, a midline neck incision is made to expose the left carotid artery for occlusive cannulation. A tapered PE 50 catheter is placed 3 cm into the carotid and the distal end is tunneled SubQ, exiting between the shoulder blades. The neck is closed with either skin stables or Vetbond and EMLA cream is applied. The exit site is closed around the catheters with a purse string suture stitch. The ends of the catheters are cauterized shut and the rat is allowed to recover from anesthesia for at least 4 hours.
For blood flow measurements, rats are placed onto the treadmill and the catheters are connected to extension tubing via 22 gage male-male connectors. For microsphere withdrawals and blood pressure measurements, the tail artery catheter is connected to a syringe (coated with tween and heparin-), which is “T” Ed to a withdrawal pump and a pressure transducer. The carotid catheter is used for injecting the microspheres. The rat began running at speed 20 m/min and an elevation of 7°. One minute into the run the pump is turned on at a rate of 0.5 ml/min, ten seconds later 0.5 ml (1×10^6 spheres/mL) of florescent microspheres are infused into the carotid line followed by a 0.5 ml flush over 30 seconds. The pump is set to stop at 90 seconds. The tmill is stopped, the extension lines are replaced and the animal's lines are flushed, and the animal allowed to rest. The syringe and lines are removed from the pump and the reference blood sample is place in a labeled tube for processing. […]

As to VEGF, the “Initial Body Wt” value in data set [1] (VEGF 15 μg/kg/d group, initial) was 372 ± 3.6. In data set [1] (VEGF 15 μg/kg/d), the “Ending Body Wt” value is given as 421 ± 5.5. Moreover, the “Blood Pressure Pre-Exercise” value in data set [2] (VEGF 15 μg/kg/d osmotic pump, two weeks after ligation) turned out to be 146 ± 2.5. Besides, in data set [2] (VEGF 15 μg/kg/d), the “Blood Pressure Exercise” value is on record as 156 ± 2.3, the “Blood Pressure Post-Exercise” value worked out at 149 ± 2.8, the “Heart Rate Exercise” value came out at 489 ± 10.0 and the “Heart Rate Post-Exercise” value is given as 476 ± 18.1. Further, in data set [2] (VEGF 15 μg/kg/d), the “Heart Rate Pre-Exercise” value was 452 ± 29.5.
